The data set can be described thus: Plasma toxicokinetics after a single intravenous bolus (DONiv, DONSiv). Format: in vivo, pigs. As to conditions: for AUC / half-life / clearance / Vd: iv, 50 ug/kg; for AUC: read-out: AUC, area under the curve; for clearance: read-out: Cl, plasma clearance; for Vd: read-out: Vd(area), apparent volume of distribution. On the procedure:
The experiment was designed as a kinetic study. The treatments included the administration of a single bolus, either po with feed serving as vehicle, or IV with standards dissolved in physiological saline (DON, DONS). Due to the instability of DONS 2 and 3 upon evaporation to dryness, the standards of the three DONS were dissolved in water acidified with 2% formic acid. The po-treatments included untreated DON-contaminated maize meal (NDON); DON-contaminated maize meal to which 5 g Na2SO3 was added dry (SDON); uncontaminated maize meal to which a mixture of DONS was added (DONSpo); DON-contaminated maize meal (MM); and kernels (MK) wet preserved with Na2SO3 for 37 (MM37, MK37) and 79 (MM79, MK79) days. […] Differences in blood profiles of DON, DONS 1, DONS 2, and DONS 3, and in related toxicokinetics, including bioavailability, would therefore enable conclusions to be drawn on the stability of DONS in vivo. In order to allow estimation of bioavailability it was necessary to obtain the plasma kinetics after IV administration of DON and DONS (DONiv, DONSiv, Table 7).
A total of 16 castrated male pigs, crossbred German Landrace × Pietrain, were used for these kinetic experiments. After an adaption phase to the balance cages, eight animals underwent surgery per trial. Animals were equipped with two permanent intravenous catheters in the external vena jugularis for serial blood sampling. After surgery the animals were allowed to recover for one day. On test day, zero blood samples had to be collected from pigs before exposure. Zero blood samples served as reference values to which the data after oral or intravenous bolus related. Serial blood samples (10 mL) were drawn prior to feeding and after 15, 30, 60 and 90 min and then after two, three, four, six, eight, 10, 12, and 24 h for pigs receiving compounds by oral administration. For pigs dosed intravenously, shorter time intervals were chosen at the beginning: five, 10, 15, 20, 30, 45 min and then following the same intervals as for oral exposure. For a clear classification in result Table 1, Table 2, Table 3, Table 4, Table 5 and Table 6, we differentiated between IV- (intravenous bolus) and O- (oral bolus) animals. Due to repeated use of individuals it was numbered continuously.
Two different injection solutions were prepared for IV administration. Standard DON (Sigma D-0156, Deisenhofen, Germany), present in solid form, was dissolved in physiological saline to prepare a 250 µg/mL stock solution. After weighing, an individual amount was drawn up into syringes with a dose of 50 µg/kg BW. The concentrations of DONS 1, 2, and 3 in DONS standard solution were 3240, 1720, and 7300 µg/mL, respectively. The production of DON sulfonates standard mixture was performed and described by Schwartz et al.. Thereafter, the standard was mixed with physiological saline to prepare a 250 µg/mL DONS stock solution. The further handling was similar to DON.
For quantitative determination of DONS 1, 2, and 3 in plasma, an HPLC-MS/MS analysis was conducted on an Agilent 1200 (Agilent Technologies, Böblingen, Germany) series HPLC system coupled to a 4000 QTrap mass spectrometer (AB Sciex, Foster City, CA, USA). Compounds were separated in gradient elution on a Phenomenex Kinetex 5u C-18 column (150 × 2.1 mm, 5 µm, 100 A) at 30 °C using water and methanol, both containing 0.1% formic acid (v/v), as mobile phases A and B. The flow rate was 300 µL/min, the injection volume 5 µL and the total run time was 17 min. The retention times of DONS 1, 2, and 3 were 2.31, 4.71, and 5.88 min, respectively. Tandem mass spectrometric detection was carried out in negative ion mode after electrospray ionization at 600 °C (ion spray voltage: −4500 V). The method was validated in-house for all analytes based on the guidelines of the FDA and European community. Calibration graphs (0.3–480 ng/mL) were prepared and good linearity was achieved (r ≥ 0.99). […]

Setting [1] is: DON in plasma after DONSiv 50 µg/kg BW, individual pigs IV6-11.
Where [2] appears, read: male, crossbred German Landrace × Pietrain, pig, plasma, DON, IV 50 µg DON/kg BW, individual pigs IV 1-5.
[3] abbreviates: male, crossbred German Landrace × Pietrain, pig, plasma, DON, IV 50 µg DON/kg BW, mean, n=5.

Several values for one entry are separate records, joined by “and”; a condition that tells them apart may be missing. Equal values may be shown once. Read-outs that look alike come from different tables or passages of the source.

Broadly, the AUC is concentration integrated over time. One may read the clearance as the rate of elimination divided by the concentration. With `CC1=C[C@H]2O[C@@H]3[C@H](O)C[C@](C)([C@@]2(CO)[C@H](O)C1=O)[C@]31CO1` [DON, deoxynivalenol], the “AUC, area under the curve” value is, setting by setting: under setting [1], 40.14 ng·h/mL and 42.16 ng·h/mL and 55.11 ng·h/mL and 40.09 ng·h/mL and 35.40 ng·h/mL; (DON in plasma, IV 50 µg DON/kg BW, 0-24 h, individual pigs IV 1-5, listed as DONiv) 227.8 ng·h/mL and 212.0 ng·h/mL and 206.3 ng·h/mL and 250.0 ng·h/mL. Besides, the “t1/2α, half-life of distribution” value under setting [1] is 0.14 h (2×) and 0.22 h and 0.40 h and 0.17 h and 0.31 h. Also, the “t1/2β, half-life of elimination” value under setting [1] is 2.16 h and 3.14 h and 2.02 h and 4.11 h and 2.43 h and 2.57 h. In addition, under “DON, IV 50 µg DON/kg BW, individual pigs IV 1-5”, the “Vd(area), apparent volume of distribution” value was 0.67 L/kg and 0.68 L/kg and 0.72 L/kg and 0.53 L/kg. Besides, for the setting “male, crossbred German Landrace × Pietrain, pig, plasma, 50 µg/kg BW, IV 50 µg DON/kg BW, range over pigs, present experiment, read-out: initial concentration A + B of DON at t = 0”, the C0 lay in the range of 121 to 708 ng/mL. The exposure (AUC) worked out at 28.9 ng·h/mL (male, crossbred German Landrace × Pietrain, pig, plasma, DON in plasma after DONSiv 50 µg/kg BW, individual pigs IV6-11); 40.3 ng·h/mL (male, crossbred German Landrace × Pietrain, pig, plasma, DON in plasma after DONSiv 50 µg/kg BW, mean, n=6); 264 ng·h/mL (male, crossbred German Landrace × Pietrain, pig, plasma, DON in plasma, IV 50 µg DON/kg BW, 0-24 h, individual pigs IV 1-5); 232 ng·h/mL (male, crossbred German Landrace × Pietrain, pig, plasma, DON in plasma, IV 50 µg DON/kg BW, 0-24 h, mean, n=5). Besides, the half-life is 0.23 h (male, crossbred German Landrace × Pietrain, pig, plasma, DON in plasma after DONSiv 50 µg/kg BW, mean, n=6, read-out: t1/2α, half-life of distribution (converted)); 2.74 h (male, crossbred German Landrace × Pietrain, pig, plasma, DON in plasma after DONSiv 50 µg/kg BW, mean, n=6, read-out: t1/2β, half-life of elimination (converted)); 1.91 h (male, crossbred German Landrace × Pietrain, pig, plasma, DON in plasma, IV 50 µg DON/kg BW, individual pigs IV 1-5, read-out: t1/2β, half-life of elimination (converted)); 1.98 h (male, crossbred German Landrace × Pietrain, pig, plasma, DON in plasma, IV 50 µg DON/kg BW, mean, n=5, read-out: t1/2β, half-life of elimination (converted)). Also, the clearance is 3.15 mL/min/kg under setting [2] and 3.61 mL/min/kg under setting [3]. Further, the Vd was determined as 0.52 L/kg under setting [2] and 0.61 L/kg under setting [3].

Values taken from publication PMC4663524, “Studies on the Bioavailability of Deoxynivalenol (DON) and DON Sulfonate (DONS) 1, 2, and 3 in Pigs Fed with Sodium Sulfite-Treated DON-Contaminated Maize” (Toxins, 2015).
